Earlier results, collected in paper PMC11533685.

Target: CD80 ECD (Homo sapiens) (UniProt P33681)
Assay: SPR

Kd: 12 µM
Substance: CTLA4 ECD (from UniProt P16410)
